Laboratory results: ChEMBL document CHEMBL4765362, “Thirty Years of HDAC Inhibitors: 2020 Insight and Hindsight” (J Med Chem, 2020)

Protein sequences, listed by entry. Tags and fused reporters are not part of them. Lines headed by an entry give the natural chain unless they say otherwise; changes in a name come on top.
UniProt P56524: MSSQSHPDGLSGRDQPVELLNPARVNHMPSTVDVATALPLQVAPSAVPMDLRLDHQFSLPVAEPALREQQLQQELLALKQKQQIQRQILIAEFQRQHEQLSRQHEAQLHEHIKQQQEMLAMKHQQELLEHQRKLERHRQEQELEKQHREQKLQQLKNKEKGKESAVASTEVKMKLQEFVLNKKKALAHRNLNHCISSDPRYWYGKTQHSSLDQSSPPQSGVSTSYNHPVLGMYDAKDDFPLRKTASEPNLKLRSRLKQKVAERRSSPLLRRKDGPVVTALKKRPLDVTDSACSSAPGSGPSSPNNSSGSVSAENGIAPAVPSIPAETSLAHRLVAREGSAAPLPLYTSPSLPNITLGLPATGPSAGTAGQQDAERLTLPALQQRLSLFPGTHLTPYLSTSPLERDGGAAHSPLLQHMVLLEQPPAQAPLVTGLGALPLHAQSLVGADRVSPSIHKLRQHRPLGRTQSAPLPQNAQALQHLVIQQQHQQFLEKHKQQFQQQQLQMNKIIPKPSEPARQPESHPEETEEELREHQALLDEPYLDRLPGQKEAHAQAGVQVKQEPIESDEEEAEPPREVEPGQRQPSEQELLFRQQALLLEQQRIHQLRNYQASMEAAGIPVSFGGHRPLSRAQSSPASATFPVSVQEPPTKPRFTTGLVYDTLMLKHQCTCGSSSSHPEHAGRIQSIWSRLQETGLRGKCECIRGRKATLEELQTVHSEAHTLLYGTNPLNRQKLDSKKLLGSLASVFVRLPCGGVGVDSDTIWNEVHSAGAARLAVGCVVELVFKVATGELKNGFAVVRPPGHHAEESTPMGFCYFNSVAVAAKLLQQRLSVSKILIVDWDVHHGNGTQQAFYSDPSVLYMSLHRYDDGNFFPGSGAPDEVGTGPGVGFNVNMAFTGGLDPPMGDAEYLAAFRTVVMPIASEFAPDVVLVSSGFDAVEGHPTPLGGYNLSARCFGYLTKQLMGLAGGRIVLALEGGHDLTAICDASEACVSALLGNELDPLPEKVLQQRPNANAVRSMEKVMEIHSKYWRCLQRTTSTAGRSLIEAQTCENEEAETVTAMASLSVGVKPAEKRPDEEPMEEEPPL

Biological target: Histone deacetylase 4 (Homo sapiens, UniProt P56524)
Assay: Inhibition of HDAC4 (unknown origin) (648 to 1057 residues) expressed in Escherichia coli BL21(DE3) cells using Boc-Lys(TFA)-AMC as substrate preincubated for 5 mins followed by substrate addition and measured after 30 mins by fluorescence method

COc1ccc(Cn2ccc3ccc(C(=O)NO)cc32)cc1
IC50: > 20 µM
